For the experiment, the system named is bacteria. The note with it: after 25 home launderings (FIG. 3).

`O=C(O)c1ccccc1` [benzoic acid]: the “efficacy after home launderings” value is “able to maintain efficacy following multiple washing cycles”.

These data come from patent US12227895B2, “Odor reduction and bacterial control on a textile material” (Microban Products Company, priority 2019, dated 2025).
